Results published in patent US20060110401A1, “Mixture of peptides from c and ns3 proteins of the hepatitis c virus and applications thereof” (priority 2002, published 2006).

Biological target: T1, HLA-DP401 (DPB1*0401) (human), P20036
T1 chain 1: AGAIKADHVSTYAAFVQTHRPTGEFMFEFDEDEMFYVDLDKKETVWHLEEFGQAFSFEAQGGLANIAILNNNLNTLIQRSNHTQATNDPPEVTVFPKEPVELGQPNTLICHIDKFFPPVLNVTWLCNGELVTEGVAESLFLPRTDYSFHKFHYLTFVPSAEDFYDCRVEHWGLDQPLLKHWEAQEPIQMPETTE
T1 chain 2: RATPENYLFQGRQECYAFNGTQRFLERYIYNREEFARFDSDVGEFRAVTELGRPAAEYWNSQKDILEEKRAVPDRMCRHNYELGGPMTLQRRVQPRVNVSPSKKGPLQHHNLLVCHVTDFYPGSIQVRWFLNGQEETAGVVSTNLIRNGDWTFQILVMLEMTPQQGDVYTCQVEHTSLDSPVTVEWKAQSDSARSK
Assay: competition
Conditions: chains peptide; modification not given

QDHLEFWEGVFTGLTHIDAHFLSQTKQSGENL [29N 1552-1583] was tested, and the IC50 was 575 nM.
